Reference: patent US10323020B2, “Substituted piperidinyl tetrahydroquinolines” (Bayer Pharma Aktiengesellschaft, priority 2013, dated 2019)

Sequences of proteins named here, by UniProt entry; tags and fusion partners are left off.
UniProt P18825, whole entry: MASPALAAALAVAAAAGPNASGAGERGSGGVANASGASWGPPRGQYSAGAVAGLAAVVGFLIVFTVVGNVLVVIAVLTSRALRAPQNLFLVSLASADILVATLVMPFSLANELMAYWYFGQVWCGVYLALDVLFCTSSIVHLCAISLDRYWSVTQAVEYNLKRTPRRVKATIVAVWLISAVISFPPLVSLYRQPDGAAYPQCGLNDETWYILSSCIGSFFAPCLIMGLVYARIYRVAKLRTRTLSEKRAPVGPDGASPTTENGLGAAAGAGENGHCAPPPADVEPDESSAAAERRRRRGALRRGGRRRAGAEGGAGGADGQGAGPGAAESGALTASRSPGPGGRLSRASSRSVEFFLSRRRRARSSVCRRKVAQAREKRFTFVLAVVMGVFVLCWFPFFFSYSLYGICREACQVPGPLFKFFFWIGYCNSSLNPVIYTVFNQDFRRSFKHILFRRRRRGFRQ

Target: recombinant human α2C receptor (Homo sapiens (Human), UniProt P18825)
Experiment: Antagonism against the adrenoreceptor α2C (luminescence, noradrenaline-stimulated CHO cells)
Conditions: read-out: IC50 antagonism against the adrenoreceptor α2C; noradrenaline 20 nM; CHO cell line with Gαqi3 and mtOb
Method: Antagonism against the adrenoreceptor α1A was tested using a recombinant human α1A receptor CHO cell line which additionally also recombinantly expresses mtAeq (mitochondrial aequorin). Antagonism against the adrenoreceptor α2A was tested using a recombinant human α2A-Gα16 receptor fusion protein CHO cell line (PerkinElmer Life Sciences) which additionally also recombinantly expresses mtAeq. Antagonism against the adrenoreceptor α2B was tested using a recombinant human α2B receptor CHO cell line (PerkinElmer Life Sciences) which additionally also recombinantly expresses mtAeq. Antagonism against the adrenoreceptor α2C was tested using a recombinant human α2C receptor CHO cell line which additionally also recombinantly expresses a chimaric G protein (Gαqi3) and mtOb (mitochondrial obelin). […]
Luminescence measurements were carried out on white 384-well microtitre plates. […] After 5 minutes, noradrenaline was added to the cells (35 μl; final concentrations: 20 nM (α1a/c and α2C) or 200 nM (α2A and α2B)), and the emitted light was measured for 50 seconds using a CCD (charge-coupled device) camera (Hamamatsu Corporation, Shizuoka, Japan) in a light-tight box. […] The IC50 values were calculated from the appropriate dose-response curves.

IC50: 0.024 µM
SMILES: CCC(COC)Nc1ncc(C(=O)N2CCC(N3CCc4cc(F)ccc4C3)CC2)cn1 (stereo not shown)
